Measurements reported in patent US10058533B2, “Pharmaceutical composition containing Ginkgolide B and Xa factor inhibitor, preparation method thereof and use thereof” (CHENGDU BAIYU PHARMACEUTICAL CO., LTD, priority 2014, dated 2018).

Chains of the proteins cited; added tags and fusions are not shown. Residues count along the entry.
UniProt P00742, 41-179 partner limits assumed: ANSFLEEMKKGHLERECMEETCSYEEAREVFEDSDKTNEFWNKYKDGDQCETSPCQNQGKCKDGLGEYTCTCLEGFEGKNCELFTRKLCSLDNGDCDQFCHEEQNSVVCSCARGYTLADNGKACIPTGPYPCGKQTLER
UniProt P00742, 235-488 limits assumed: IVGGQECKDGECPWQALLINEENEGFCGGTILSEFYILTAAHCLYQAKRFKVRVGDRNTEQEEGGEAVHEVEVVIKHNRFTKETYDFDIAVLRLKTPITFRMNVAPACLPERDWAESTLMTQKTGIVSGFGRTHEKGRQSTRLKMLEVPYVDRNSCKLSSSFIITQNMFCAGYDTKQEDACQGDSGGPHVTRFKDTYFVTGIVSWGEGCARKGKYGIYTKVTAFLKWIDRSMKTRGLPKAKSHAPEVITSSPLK

What was measured:
FXa = FXa (Homo sapiens, UniProt P00742); conditions: cited from earlier work
factor Xa [1] = test: Anti-coagulation factor Xa activity in vitro (chromogenic substrate assay); assay type: biochemical, rabbit
Procedure: A chromogenic substrate assay was adopted, and plasma anti-Xa activity was determined on a microplate reader according to a kit specification and reference documents.

factor Xa [2] = test: Plasma anti-factor Xa activity, rabbit wound-limb deep venous thrombosis forming model; assay type: in vivo; conditions: 5 mg/kg i.g., x ± SD
Procedure: Eight were taken as control group and the rest were treated by a striking device. Striking area was a round surface with the diameter of 1.5 cm, the wounding energy was calculated according to Ep=mgh, and the energy of each striking of the iron rod is 7.5 J.
Specifically: the rabbit was anesthetized by intravenous injection of 3% pentobarbital sodium at ear edge with the dose of 1 ml/kg. The rabbit was kept laying down at right side prostrate position and the left thigh was set on the striking platform. Found the trochanter of the left femur and set the striking head attached to area from the trochanter to the 1.5 cm below. The self-made striking device was used for striking the outer side of the thigh near-end, and the plaster was used for fixing the left limb on the hip/knee-bending area. When the plaster bandage was applied and the right hip was examined to move freely, the rabbit was kept to lay down until solidification. After the model establishment, the animal was allowed to drink water normally and was fed with granular food. No anticoagulant or antibiotic was used.
Animals were grouped after modeling. The drug was fed according to table 4 via oral gavage, once a day for 7 days continuously.
At 0.5, 1.0, 2.0, 3.0 and 4.0 h after the first administration, blood was taken from ear central artery. Plasma was separated and aPPT, PT and the anti-factor Xa activity were determined on an automatic coagulation detector.

CN1CCc2nc(C(=O)N[C@@H]3C[C@@H](C(=O)N(C)C)CC[C@@H]3NC(=O)C(=O)Nc3ccc(Cl)cn3)sc2C1 [Edoxaban]
selectivity to FXa compared to FIIa (FXa): 104 times | anti-factor Xa activity (factor Xa [1]): 0.79 IU/ml | anti-factor Xa activity (factor Xa [2]; 0.5 h after administration): 0.25 ± 0.06 IU/ml | anti-factor Xa activity (factor Xa [2]; 1 h after administration): 0.21 ± 0.08 IU/ml | anti-factor Xa activity (factor Xa [2]; 2 h after administration): 0.20 ± 0.10 IU/ml | anti-factor Xa activity (factor Xa [2]; 3 h after administration): 1.26 ± 0.09 IU/ml | anti-factor Xa activity (factor Xa [2]; 4 h after administration): 1.26 ± 0.07 IU/ml
